Target: T1, alpha-glucosidase enzyme from Saccharomyces cerevisiae (EC 3.2.1.20) (Saccharomyces cerevisiae, UniProt P53341)
T1 construct: purchased Sigma-Aldrich
Type: biochemical
Conditions: Bauhinia pulla extract screening; test concentration not given
Description: Briefly, the enzyme from Saccharomyces cerevisiae (EC 3.2.1.20) and the pNPG substrate were dissolved in 0.1 M phosphate buffer (pH 7), which was enriched by bovine serum albumin and sodium azide. Standards and samples were suspended in 20% (v/v) of DMSO in a water solution. In a 96-well plate, 50 µl of PBS, standards, samples and enzyme solutions were mixed and incubated for 2 min at 37 °C. At last, 50 µl of 4 mM pNPG was added and incubated for 5 min before the kinetic parameter measurement, as described earlier.
The velocity was examined by a linear relationship equation between absorbance and time, Equation (1).
The percent inhibition was determined for the highest velocity as:% Inhibition = (V control − V sample)/(V control) × 100(2)
The IC50 value was calculated by using a calibration curve equation between samples at five different concentrations and inhibition percentages.

By UniProt entry, the sequences of proteins in these tests, tags left out. Where a name states a change or a piece, a line headed by the entry shows the natural chain unless it says otherwise.
UniProt P53341: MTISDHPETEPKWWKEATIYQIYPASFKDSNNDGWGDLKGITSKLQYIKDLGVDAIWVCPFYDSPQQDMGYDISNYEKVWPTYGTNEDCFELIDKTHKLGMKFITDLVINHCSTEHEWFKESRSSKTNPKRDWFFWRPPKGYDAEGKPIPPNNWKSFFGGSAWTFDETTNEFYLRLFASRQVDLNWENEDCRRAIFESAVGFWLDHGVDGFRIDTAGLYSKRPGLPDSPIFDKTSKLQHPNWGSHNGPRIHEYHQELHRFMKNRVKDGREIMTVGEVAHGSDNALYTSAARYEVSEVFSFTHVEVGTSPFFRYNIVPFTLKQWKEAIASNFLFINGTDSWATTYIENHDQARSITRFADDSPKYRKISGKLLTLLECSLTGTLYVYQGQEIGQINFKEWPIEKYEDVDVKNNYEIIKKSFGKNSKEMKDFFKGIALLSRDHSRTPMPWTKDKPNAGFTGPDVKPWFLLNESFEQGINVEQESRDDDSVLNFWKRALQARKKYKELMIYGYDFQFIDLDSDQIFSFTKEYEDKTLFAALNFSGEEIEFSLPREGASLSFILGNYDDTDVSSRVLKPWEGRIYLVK

## C[C@H]1O[C@H](O[C@H]2[C@H](O)[C@@H](O)[C@@H](O[C@H]3[C@H](O)[C@@H](O)C(O)O[C@@H]3CO)O[C@@H]2CO)[C@H](O)[C@@H](O)[C@@H]1N[C@H]1C=C(CO)[C@@H](O)[C@H](O)[C@H]1O (stereo partly shown) [Acarbose, reference compound]
  Alpha-Glucosidase Inhibition (%) ± SD: 86.09 ± 1.54%

From publication PMC8512368, “Alpha-Glucosidase Inhibitory Assay-Screened Isolation and Molecular Docking Model from Bauhinia pulla Active Compounds” (Molecules, 2021)
